Legend:
[1] = target: T1, BSA, in the presence of simeprevir (UniProt P02769 25-607); assay: SPR (Biacore 8K): PRSIM_57 immobilised, BSA + 10 nM simeprevir injected
T1 construct: also called BSA control

[2] = target: T1, BSA, in the presence of simeprevir; assay: SPR (Biacore 8K): PRSIM_23 immobilised, BSA + 10 nM simeprevir injected

Binder | binding result [1] | binding result [2]
PRSIM_57 (scFv) scFv: QVQLVQSGAEVKKPGSSVKVSCKASGGTFSSYAISWVRQAPGQGLEWMGGIIPIFGTANYAQKFQGRVTITADESTSTAYMELSSLRSEDTAVYYCARHTNYITVFDYWGQGTLVTVSSGGGGSGGGGSGGGGSAQSVLTQPPSASGTPGQRVTISCSGSSSNIGSNTVNWYQQLPGTAPKLLIYSNNQRPSGVPDRFSGSKSGTSASLAISGLQSEDEADYYCAAWDHHWEQVVFGGGTKLTVL | no binding | –
PRSIM_23 (designed binder) RLDAPSQIEVKDVTDTTALITWVDPRYDDIWWFELTYGIKDVPGDRTTIKLYLNDPYYSIGNLKPDTEYEVSLISYTGDSYSRSGSNPAKITFKTGL | – | no binding
